Reference: US20260209222A1, “CBL-B MODULATORS AND USES THEREOF” (Nimbus Clio, Inc., priority 2022, published 2026)

The chains behind the UniProt entries cited, without tags or fusion partners. Residues count along the entry.
UniProt Q13191, 36-427 limits assumed: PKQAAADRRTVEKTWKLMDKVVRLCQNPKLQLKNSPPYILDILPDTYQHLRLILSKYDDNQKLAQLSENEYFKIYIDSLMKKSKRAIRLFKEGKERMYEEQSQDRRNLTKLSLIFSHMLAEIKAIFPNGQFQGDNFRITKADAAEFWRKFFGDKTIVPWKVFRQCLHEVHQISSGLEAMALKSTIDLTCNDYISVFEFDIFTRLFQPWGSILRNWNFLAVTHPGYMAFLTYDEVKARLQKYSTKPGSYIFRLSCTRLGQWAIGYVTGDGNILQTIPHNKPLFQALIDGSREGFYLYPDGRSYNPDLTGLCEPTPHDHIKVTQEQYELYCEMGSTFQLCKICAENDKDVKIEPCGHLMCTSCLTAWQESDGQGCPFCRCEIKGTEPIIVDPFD

Legend:
[1] = tested on: Recombinant human c-Cbl (aa 47-435); experiment: c-Cbl Biochemical Assay (TR-FRET); details: ratio from the Cbl-b and c-Cbl TR-FRET biochemical assays
Procedure: c-Cbl Biochemical Assay (TR-FRET)
Recombinant human c-Cbl (aa 47-435) was expressed in E coli, purified and biotinylated in vitro. The protein was diluted to 12 nM in freshly prepared assay buffer consisting of 50 mM HEPES, pH 7.0, 100 mM NaCl, 5 mM MgCl2, 0.01% Triton-X 100, 0.01% BSA and 1 mM DTT. Recombinant human Src (aa 254-536)-GSSGSS-Zap-70 (aa 281-297) fusion protein was expressed in E coli and purified. Protein was diluted in assay buffer to 5-20 nM and ATP was added to 1 mM. Recombinant human UBE2D2(C85K) was expressed in E coli, purified and ubiquitinated and Bodipy labelled in vitro. Protein was diluted to 200 nM in assay buffer without MgCl2 (or Cisbio PPI buffer). Streptavidin-Terbium was added to 2 nM and EDTA to 10 mM, to provide a binding assay mix. Compounds were dissolved in DMSO and diluted to prepare a ten-point half log dilution series. 100 nl of each compound concentration was dispensed in duplicate in a 384 well black assay plate using acoustic dispensing. […] The enzyme reaction was terminated and the binding reaction was initiated by adding 10p of binding assay mix to all wells and incubating the plate at RT for 60 min prior to assay read. […] The HTRF assay signal was measured at 520 nm on an Envision plate reader, with reference signal at 485 or 620 nm. […]

[2] = target: Recombinant human Cbl-b (aa 36-427) (Homo sapiens, UniProt Q13191); experiment: Cbl-b Biochemical Assay (TR-FRET); details: read-out: TR-FRET Cbl-b IC50; 6 nM Cbl-b, 1-2.5 nM Src-Zap70, 0.5 mM ATP; HTRF signal at 520 nm
Procedure: Cbl-b Biochemical Assay (TR-FRET)
Recombinant human Cbl-b (aa 36-427) was expressed in E coli, purified and biotinylated in vitro. The protein was diluted to 12 nM in freshly prepared assay buffer consisting of 50 mM HEPES, pH 7.0, 100 mM NaCl, 5 mM MgCl2, 0.01% Triton-X 100, 0.01% BSA and 1 mM DTT. Recombinant human Src (aa 254-536)-GSSGSS-Zap-70 (aa 281-297) fusion protein was expressed in E coli and purified. Protein was diluted in assay buffer to 2-5 nM and supplemented with ATP to 1 mM. Fluorescein-BODIPY labeled UBED2D(C85K)-Ub was prepared by conjugating ubiquitin (Ub) labeled at its N-terminus with Fluorescein-BODIPY maleimide (ThermoFisher Catalog no B10250) to E coli expressed and purified UBED2D(C85K) [see Dou et al Nature Structural and Molecular Biology 8: 982-987, 2013]. Recombinant human UBE2D2(C85K) was expressed in E coli, purified and ubiquitinated and Bodipy labelled in vitro. Protein was diluted to 200 nM in assay buffer without MgCl2 (or Cisbio PPI buffer). Streptavidin-Terbium was added to 2 nM and EDTA to 10 mM, to provide a binding assay mix. […] The enzyme reaction was terminated and the binding reaction was initiated by adding 10p of binding assay mix to all wells and incubating the plate at RT for 60 min prior to assay read. […] The HTRF assay signal was measured at 520 nm on an Envision plate reader, with reference signal at 485 or 620 nm. […]

Compound: Cn1cnnc1-c1ccccc1-c1cc(NCCC#N)nc(-c2nc3cc(CNCC(C)(C)O)cc(C(F)(F)F)c3o2)c1
- Cbl-b/c-Cbl Selectivity [1]: 6
- IC50 [2]: 200 to 5000 nM
